Assay results taken from patent publication US20220324865A1 (Bayer Aktiengesellschaft, priority 2018, published 2022).

By UniProt entry, the sequences of proteins in these tests, tags left out.
UniProt P43115, whole entry: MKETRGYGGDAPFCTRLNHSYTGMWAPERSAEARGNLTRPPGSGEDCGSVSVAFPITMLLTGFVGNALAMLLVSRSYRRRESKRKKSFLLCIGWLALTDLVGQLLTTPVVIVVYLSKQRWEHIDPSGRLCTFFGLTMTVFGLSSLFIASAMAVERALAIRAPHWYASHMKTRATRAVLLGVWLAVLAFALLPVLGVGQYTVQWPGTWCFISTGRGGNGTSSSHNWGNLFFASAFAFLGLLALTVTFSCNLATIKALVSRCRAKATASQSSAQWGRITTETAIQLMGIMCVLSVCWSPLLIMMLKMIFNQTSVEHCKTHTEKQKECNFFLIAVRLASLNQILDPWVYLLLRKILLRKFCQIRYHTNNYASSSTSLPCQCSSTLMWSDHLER

Target: human EP3 receptor (Homo sapiens, UniProt P43115)
Test: Cellular in vitro assay for determining EP3 receptor activity (human EP3 cell line, sulprostone-stimulated calcium luminescence)
Settings: read-out: EP3 CHO mtCLY ANTAG IC50; CHO cells expressing human EP3 and mitochondrial Clytin; antagonist mode, sulprostone at EC50
Procedure: B-1. Cellular In Vitro Assay for Determining EP3 Receptor Activity
The identification of antagonists of the EP3 receptor from humans and rats as well as the quantification of the activity of the compounds of the invention was carried out using recombinant cell lines. These cell lines originally derive from a hamsters ovary epithelial cell (Chinese Hamster Ovary, CHO K1, ATCC: American Type Culture Collection, Manassas, Va. 20108, USA). The test cell lines constitutively express the human or rat EP3 receptors. The naturally Gαi-coupled human and rat EP3 receptors were stably co-transfected with Gα16 into cells that are also stably transfected with a mitochondrial form of the calcium-sensitive photoproteins Clytin (human EP3) or Photina (rat EP3), which, after reconstitution with the cofactor coelenterazine, emit light when there are increases in free calcium concentrations (Nature 1992, 358, 325-327; Gene 1995, 153 (2), 273-274). The resulting EP3 receptor cells react to stimulation of the recombinantly expressed EP3 receptors by the agonist sulprostone with intracellular release of calcium ions, which can be quantified by the resulting photoprotein luminescence. Antagonists inhibit the receptor signaling, leading to reduced calcium release and luminescence. The bioluminescence of the cell lines is detected using a suitable luminometer (Trends Pharmacol. Sci. 1996, 17, 235-237).
Human and Rat EP3 Cell Lines:
On the day before the assay, the cells are plated out in culture medium (OptiMEM, 1% FCS, 2 mM glutamine, 10 mM HEPES, 5 μg/ml coelenterazine) in 384-well microtiter plates and kept in a cell incubator (96% humidity, 5% v/v CO2, 37° C.). On the day of the assay, test compounds in various concentrations are placed for 10 minutes in the wells of the microtiter plate before the agonist sulprostone at EC50 concentration is added. The resulting light signal is measured immediately in a luminometer. All concentrations are measured in quadruples.

| IC50 [nM] | Compound |
| --- | --- |
| 4.5 | Cc1ccc(-c2cn3nc(C(=O)NC(C)(C)CO)c(C4CC4)c3c(=O)[nH]2)cc1Cl |
| 0.78 | Cc1ccc(-c2cn3nc(C(=O)NCC(O)C(F)F)c(C4CC4)c3c(=O)[nH]2)cc1Cl (centres unmarked) |
| 2.1 | Cc1ccc(-c2cn3nc(C(=O)N[C@H](C)C4CC4)c(C4CC4)c3c(=O)[nH]2)cc1F |
| 1.35 | Cc1ccc(-c2cn3nc(C(=O)NC(CO)C(F)(F)F)c(C4CC4)c3c(=O)[nH]2)cc1Cl (centres unmarked) |
| 0.81 | Cc1ccc(-c2cn3nc(C(=O)NCC(O)C(F)F)c(C4CC4)c3c(=O)[nH]2)cc1C (single isomer, unassigned) [6-428] |
| 6.05 | Cc1ccc(-c2cn3nc(C(=O)NC(C#N)CO)c(C4CC4)c3c(=O)[nH]2)cc1F (centres unmarked) |
| 1.4 | Cc1cc(-c2cn3nc(C(=O)N[C@@H](c4ccc(F)cc4)C(F)(F)CO)c(C4CC4)c3c(=O)[nH]2)ccc1F |
| 0.49 | Cc1ccc(-c2cn3nc(C(=O)NCC(N)C(F)(F)F)c(C4CC4)c3c(=O)[nH]2)cc1C (centres unmarked) |
| 1.65 | Cc1cc(-c2cn3nc(C(=O)NC(CO)C(F)(F)F)c(C4CC4)c3c(=O)[nH]2)ccc1Cl (single isomer, unassigned) [6-307] |
| 8.3 | Cc1cc(-c2cn3nc(C(=O)N[C@@H](C)CO)c(C4CC4)c3c(=O)[nH]2)ccc1Cl |
| 3.1 | Cc1ccc(-c2cn3nc(C(=O)NC4CCN(CC(F)(F)F)C4)c(C4CC4)c3c(=O)[nH]2)cc1F (centres unmarked) |
| 0.91 | COC[C@H](C)NC(=O)c1nn2cc(-c3ccc(C)c(Cl)c3)[nH]c(=O)c2c1C1CC1 |
| 2.7 | Cc1cc(-c2cn3nc(C(=O)NCCNCC(F)F)c(C4CC4)c3c(=O)[nH]2)ccc1Cl |
| 0.75 | Cc1ccc(-c2cn3nc(C(=O)NC4CCN(CC(F)(F)F)C4)c(C4CC4)c3c(=O)[nH]2)cc1C (single isomer, unassigned) [6-463] |
| 9.45 | O=C(NC(CO)C(F)(F)F)c1nn2cc(-c3ccc(Cl)c(F)c3)[nH]c(=O)c2c1C1CC1 (single isomer, unassigned) [6-92] |
| 3.2 | Cc1ccc(-c2cn3nc(C(=O)NCCNCC(F)F)c(C4CC4)c3c(=O)[nH]2)cc1F |
| 1.8 | Cc1ccc(-c2cn3nc(C(=O)N[C@@H](CO)C(C)C)c(C4CC4)c3c(=O)[nH]2)cc1Cl |
| 2.1 | Cc1ccc(-c2cn3nc(C(=O)NC(CO)c4ccc(F)cc4)c(C4CC4)c3c(=O)[nH]2)cc1F (single isomer, unassigned) [6-373] |
| 5.6 | COC[C@H](C)NC(=O)c1nn2cc(-c3ccc(Cl)c(C)c3)[nH]c(=O)c2c1C1CC1 |

Further lines, the compound ahead of its results:

| Compound | IC50 [nM] |
| --- | --- |
| O=C(NC(CN1CCOCC1)c1ccc(F)cc1)c1nn2cc(-c3ccc4ccccc4c3)[nH]c(=O)c2c1C(F)(F)F (single isomer, unassigned) [6-505] | 1.03 |
| CN1CC(NC(=O)c2nn3cc(-c4cccc(Cl)c4)[nH]c(=O)c3c2C2CC2)(c2ccc(F)cc2)C1 | 19 |
| CC(C)(O)C(NC(=O)c1nn2cc(-c3ccc(Cl)c(F)c3)[nH]c(=O)c2c1C1CC1)c1ccc(F)c(F)c1 (single isomer, unassigned) [6-99] | 1.12 |
| CC(C)c1c(C(=O)N[C@@H](c2ccc(F)cc2)C(F)(F)CO)nn2cc(-c3ccc(Cl)cc3)[nH]c(=O)c12 | 1.55 |
| Cc1ccc(-c2cn3nc(C(=O)N[C@@H](c4ccc(F)cc4)C(C)(C)O)c(C4CC4)c3c(=O)[nH]2)nc1C | 1.15 |
| Cc1cc(-c2cn3nc(C(=O)NCC(O)C(F)(F)F)c(C(F)(F)F)c3c(=O)[nH]2)ccc1Cl (single isomer, unassigned) [6-206] | 3.1 |
| O=C(N[C@H](CN1CC(F)C1)c1cccc(F)c1)c1nn2cc(-c3ccc4ccccc4c3)[nH]c(=O)c2c1C(F)(F)F | 1.11 |
| O=C(NCC(O)C(F)(F)F)c1nn2cc(-c3ccc4c(c3)OCCO4)[nH]c(=O)c2c1C(F)(F)F (centres unmarked) | 5.5 |
| COC[C@H](NC(=O)c1nn2cc(-c3ccc(C)c(Cl)c3)[nH]c(=O)c2c1C(F)(F)F)c1ccccc1 | 2.45 |
| COc1ccc([C@@H](C)NC(=O)c2nn3c(C)c(-c4ccc5ccccc5c4)[nH]c(=O)c3c2C)cn1 | 5.75 |
| C[C@H](NC(=O)c1nn2cc(-c3ccc(Cl)c(F)c3)[nH]c(=O)c2c1C(F)(F)C(F)(F)F)C1CC1 | 5.4 |
| O=C(N[C@H](CN1CC[C@@H](F)C1)c1ccc(F)cc1)c1nn2cc(-c3ccc(Cl)c(F)c3)[nH]c(=O)c2c1C1CC1 | 0.83 |
| Cc1ccc(-c2cn3nc(C(=O)NC(C)c4ccc(OCC(F)(F)F)cn4)cc3c(=O)[nH]2)cc1C (centres unmarked) | 4.5 |
| O=C(N[C@H](CN1CC[C@H](F)C1)c1ccc(F)cc1)c1nn2cc(-c3ccc(Cl)c(F)c3)[nH]c(=O)c2c1C1CC1 | 0.66 |
| Cc1ccc(-c2cn3nc(C(=O)N[C@@H](c4ccc(F)cc4)[C@H](O)C(F)(F)F)c(C(F)(F)F)c3c(=O)[nH]2)cc1Cl | 0.84 |
| Cc1ccc(-c2cn3nc(C(=O)NC4CCN(C5CC5)C4)c(C4CC4)c3c(=O)[nH]2)cc1C (single isomer, unassigned) [6-447] | 4.55 |
| Cc1cc(-c2cn3nc(C(=O)NC4(c5ccc(F)cc5)CN(C)C4)c(C4CC4)c3c(=O)[nH]2)ccc1C(F)(F)F | 7.75 |
| Cc1ccc(-c2cn3nc(C(=O)NC(C)c4ccccc4OC(F)F)cc3c(=O)[nH]2)cc1C(F)(F)F (centres unmarked) | 3.4 |
| Cc1ccc(-c2cn3nc(C(=O)N[C@@H](c4ccc(F)cc4)C(C)(C)O)cc3c(=O)[nH]2)cc1C1CC1 | 2.73 |
| Cc1ccc(-c2cn3nc(C(=O)NC4CCN(C5CC5)C4)c(C4CC4)c3c(=O)[nH]2)cc1C (single isomer, unassigned) [6-448] | 3.05 |
| Cc1ccc(-c2cn3nc(C(=O)NC(CO)c4ccc(F)cc4)cc3c(=O)[nH]2)cc1C(F)(F)F (centres unmarked) | 9.1 |

| Compound | IC50 [nM] |
| --- | --- |
| Cc1cc(-c2cn3nc(C(=O)N[C@@H](c4ccc(F)cc4)C(C)(C)O)cc3c(=O)[nH]2)ccc1C1CC1 | 6.35 |
| Cc1cc(-c2cn3nc(C(=O)NCC(C)(N)C(F)(F)F)c(C(F)(F)F)c3c(=O)[nH]2)ccc1Cl (racemic) | 8.67 |
| Cc1ccc(-c2cn3nc(C(=O)N[C@@H](c4ccc(F)cc4)C(C)(C)O)c(C(F)(F)C(F)(F)F)c3c(=O)[nH]2)cc1C | 0.43 |
| Cc1ccc(-c2cn3nc(C(=O)NC4(c5ccc(F)cc5)CN(C)C4)cc3c(=O)[nH]2)cc1C1CC1 | 9.3 |
| CN(C)CC(NC(=O)c1nn2cc(-c3ccc4ccccc4c3)[nH]c(=O)c2c1C(F)(F)F)c1ccc(F)cc1 (single isomer, unassigned) [6-508] | 6.15 |
| Cc1cc(-c2cn3nc(C(=O)NC(C)CN4CCOCC4)c(C4CC4)c3c(=O)[nH]2)ccc1Cl (single isomer, unassigned) [6-329] | 5.45 |
| Cc1cc(-c2cn3nc(C(=O)N[C@H](CN4CC[C@H](F)C4)c4ccc(F)cc4)c(C4CC4)c3c(=O)[nH]2)ccc1Cl | 0.94 |
| Cc1ccc(-c2cn3nc(C(=O)NC(CO)c4ccc(F)cc4)c(C(F)(F)F)c3c(=O)[nH]2)cc1Cl (centres unmarked) | 1.85 |
| Cc1ccc(-c2cn3nc(C(=O)NCC(O)C(F)(F)F)c(C(F)(F)F)c3c(=O)[nH]2)cc1F (single isomer, unassigned) [6-138] | 6.27 |
| CC(C)(O)[C@@H](NC(=O)c1nn2cc(-c3ccc4c(c3)OCCO4)[nH]c(=O)c2c1C(F)(F)F)c1ccc(F)cc1 | 0.81 |
| Cc1cc(-c2cn3nc(C(=O)N[C@@H](c4ccc(F)cc4)C(F)(F)CO)c(C4CC(F)(F)C4)c3c(=O)[nH]2)ccc1Cl | 4.3 |
| Cc1ccc(-c2cn3nc(C(=O)N[C@@H](c4ccc(F)cc4)[C@@H](O)C(F)(F)F)cc3c(=O)[nH]2)cc1F | 0.74 |
| Cc1ccc(-c2cn3nc(C(=O)NCC(O)C(F)(F)F)c(C(F)(F)F)c3c(=O)[nH]2)cc1F (single isomer, unassigned) [6-140] | 3.45 |
| O=C(N[C@H](CN1CC(F)C1)c1ccccc1F)c1nn2cc(-c3ccc4ccccc4c3)[nH]c(=O)c2c1C(F)(F)F | 4.25 |
| CCC1(NC(=O)c2cc3c(=O)[nH]c(-c4ccc5c(c4)OCCO5)cn3n2)CN(C(=O)OC(C)(C)C)C1 | 1.65 |
| CC(CO)NC(=O)c1nn2cc(-c3ccc4c(c3)OCCO4)[nH]c(=O)c2c1C1CC1 (single isomer, unassigned) [6-468] | 4.45 |
| Cc1cc(-c2cn3nc(C(=O)N[C@@H](c4ccc(F)cc4)C(C)(C)O)c(C4CC4)c3c(=O)[nH]2)ccc1F | 1.4 |
| Cc1ccc(-c2cn3nc(C(=O)NC(CN4CCOCC4)c4ccc(F)cc4)c(C4CC4)c3c(=O)[nH]2)cc1C (single isomer, unassigned) [6-443] | 2.45 |
| CC(CO)NC(=O)c1nn2cc(-c3ccc4c(c3)OCCO4)[nH]c(=O)c2c1C1CC1 (single isomer, unassigned) [6-469] | 3.35 |
| CN1CCOc2ccc(-c3cn4nc(C(=O)N[C@H](CCO)c5ccc(F)cc5)cc4c(=O)[nH]3)cc21 | 2.15 |

Same assay, conditions: read-out: EP3 CHO mtCLY ANTAG IC50; CHO cells expressing human EP3 and mitochondrial Clytin; antagonist mode, sulprostone at EC50; tested form: formate

| IC50 [nM] | Compound |
| --- | --- |
| 4.8 | CN1CC(NC(=O)c2nn3cc(-c4ccc5ccccc5c4)[nH]c(=O)c3c2C#N)(c2ccc(F)cc2)C1 |
| 9.57 | COc1ccc(C2(NC(=O)c3cc4c(=O)[nH]c(-c5ccc6c(c5)OCCO6)cn4n3)CN(C)C2)cc1 |
